Source: PubChem
Most compounds without a hit are left out; they make up all but 2.3% or so of the library.
Nrf2 ARE act – activates Nrf2 signaling | AREc32 ARE-luciferase reporter (MCF7-derived line), luminescence, 24 h | Potency, µM (highest dose often 46.1 µM), most hits filed as activators | 410,000 tested, 0.31% active | AID 624171; also: nearly all actives have a fitted effect of over 65% in size
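AREc32_Fluc, 1000 cells/well, OPTI-MEM + 5% FBS, o/n 37 deg C 5% CO2; 23 nL cpd by pin tool, 24 hr; Steady-Glo 30 min RT, luminescence.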
Nrf2 block – Nrf2 pathway inhibition. A549 ARE-Fluc reporter, luciferase luminescence, 18-24 h. Potency, µM (top dose mostly 46 µM), usual class: inhibitors. 360,000 tested, 2.1% active. AID 504444; also: nearly all actives have a fitted effect of over 60% in size
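Nrf2 function is reported as luminescence of an ARE-controlled luciferase in A549 cells. Compounds were tested at several concentrations, and a CellTiter-Fluor read on the same wells flagged cytotoxicity.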
GRP78 ERSR act – induces the endoplasmic reticulum stress response in human glioma cells; U87-MG GRP78 promoter luciferase reporter, 16 h; Potency, µM, most hits filed as activators; 420,000 tested, 0.02% active; also: series mostly up to about 76 µM; nearly all actives have a fitted effect of over 35% in size
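Stably transfected U87-MG glioma cells carrying a GRP78-based luciferase sensor; 16 h compound incubation. Luminescence end-point read 10 min after Bright-Glo addition at room temperature.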
miR-21 reporter – miR-21 reporter, rising signal; HeLa miR-21 FLuc reporter, luciferase, 48 h; Potency, µM (highest dose often 38.3 µM); 340,000 tested, under 10 active; AID 2288; active = well fitted rising curve with a large enough effect; inconclusive = small, poorly fitted or top-dose-only effect; inactive = no such curve, though single readings can be large or run the other way;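 further: miR-21 action dims this reporter so a rising signal means less miR-21 action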
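HeLa miR-21-FLuc reporter line, endogenous miR-21; 2000 cells/well in DMEM/10% FBS; compound titration up to ~40uM final, 48 h, 37 degree Celsius; luciferase detection reagent, 15 min lysis, CCD luminescence.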
A549 viability – counter-screen for Nrf2 inhibitors: cytotoxicity in A549 cells | 390,000 tested, 0.16% active | Potency, µM (series often up to 46 µM), hits mostly inhibitors | A549 ARE-Fluc cells, CellTiter-Fluor viability, 18-24 h
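A549 ARE-Fluc cells in 5% FBS OPTI-MEM, 5000 cells/well, rested 2 h then exposed to compounds in concentration-response for 18-24 h at 37 °C. Viability by CellTiter-Fluor fluorescence (Ex 405/Em 525) after 30 min; luciferase luminescence (BugLite, 15 min, RT) read afterwards.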
Mito fusion yeast – mitochondrial division inhibition or fusion activation | S. cerevisiae fusion-defective mutant growth rescue, CellTiterGlo 48 h | Potency, µM (series often up to 46.1 µM), hits mostly activators | 320,000 tested, 0.23% active; also: nearly all actives have a fitted effect of over 45% in size
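Read-out: ATP-based luminescence (CellTiterGlo, 10 min ambient) reporting growth of fusion-defective ts yeast after 48 hours at 37C on glycerol/ethanol YPEG medium in the presence of compound.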
Large screens that a line does not name were inactive. Unless noted, calls follow the shape of the dose curve; as a rule, active = well fitted curve in the direction sought with a large enough effect; inconclusive = small, poorly fitted or top-dose-only effect, or another doubt; inactive = no such curve, though single readings can be large; an effect the other way counts as inactive or inconclusive.

O=C(N1CCN(c2ccccn2)CC1)N1c2ccccc2Sc2ccccc21	Nrf2 block inconclusive, Mito fusion yeast 11µM
O=C1Nc2cc(C(=O)N3CCN(c4ccccn4)CC3)ccc2S/C1=C\c1ccccc1	Nrf2 block 23µM
O=C(CSc1nc2[nH]ncc2c(=O)n1-c1ccccc1Cl)N1CCCC1	none
S=C(S)OC1CC2CC1C1CCCC21 (configuration not stated)	Mito fusion yeast 18µM (no result: miR-21 reporter)
Cc1cccc(NS(=O)(=O)c2ccc3c(c2)[C@H]2C=CC[C@H]2[C@@H](c2ccc(F)cc2)N3)c1	Nrf2 block 18µM (no result: Mito fusion yeast)
Cc1c(CCC(=O)O)c(=O)oc2c(C)c3occ(-c4ccc(Cl)cc4)c3cc12	Nrf2 block inconclusive
Cc1oc2c(C)c3oc(=O)c(CCC(=O)O)c(C)c3cc2c1-c1ccccc1	Nrf2 block inconclusive, Mito fusion yeast 3.5µM
Cc1ccc(OCC(=O)NNc2c3ccccc3nc3ccccc23)cc1	Nrf2 block 18µM, A549 viability inconclusive
CCN(CC)c1ccc(NC(=O)C2CCCN(S(=O)(=O)c3cnc[nH]3)C2)c(C)c1 (configuration not stated)	Nrf2 block 23µM
CC(C)(C)N(Cc1ccccc1)C(=O)CSc1ncn[nH]1	Mito fusion yeast 32µM
COc1ccc(C2Nc3ccccc3C(=O)N2Cc2cccc(Cl)c2)cc1COc1ccc(NC(C)=O)cc1 (configuration not stated)	Nrf2 block 23µM (no result: Nrf2 ARE act, GRP78 ERSR act, miR-21 reporter, Mito fusion yeast)
COc1ccc(CN(Cc2ccccc2)C(=O)c2ccccc2)cc1COc1ccc(NC(C)=O)cc1	Nrf2 block 23µM (no result: Nrf2 ARE act, GRP78 ERSR act, miR-21 reporter, Mito fusion yeast)
CCCN1C(=O)c2ccccc2NC1c1ccc(OC)c(COc2cccc(C)c2C)c1 (configuration not stated)	Nrf2 block 26µM (no result: Nrf2 ARE act, miR-21 reporter, Mito fusion yeast)
COc1ccc(CN(Cc2ccccc2)C(=O)c2ccc(NC(C)=O)cc2)cc1COc1ccc(NC(C)=O)cc1	Nrf2 block inconclusive (no result: Nrf2 ARE act, GRP78 ERSR act, miR-21 reporter, Mito fusion yeast)
Cc1ccc(S(=O)(=O)Nc2cccc3ncccc23)s1	Nrf2 ARE act inconclusive, Nrf2 block 15µM, GRP78 ERSR act inconclusive, miR-21 reporter inconclusive, A549 viability inconclusive
Cn1c(=O)[nH]c(=O)c2c1nc(CN1CCN(c3ccc(F)cc3)CC1)n2CCc1ccccc1	none
CCCCc1cc(=O)oc2cc(OCC(=O)N(CC)CC)c(Cl)cc12	Nrf2 block inconclusive
COc1cccc(C(=O)NC2CC3CCCC(C2)N3CC(=O)Nc2ccccc2C(F)(F)F)c1 (configuration not stated)	Nrf2 block inconclusive, miR-21 reporter inconclusive
O=C(CN1C2CCCC1CC(NC(=O)C1CCCCC1)C2)Nc1ccccc1C(F)(F)F (configuration not stated)	Nrf2 block 23µM
COc1ccccc1N1CCN(C2CCCN(S(=O)(=O)c3ccccc3)C2)CC1 (configuration not stated)	none
Cc1cccc(OCc2nnc(SCC(=O)N(c3ccccc3)C3CCS(=O)(=O)C3)o2)c1 (configuration not stated)	Nrf2 block 21µM (no result: miR-21 reporter)
Cc1cccc(NC(=O)CSc2nc(C)c(CC(=O)c3ccc(Br)cc3)c(C)c2C#N)c1C	Nrf2 block inconclusive
Cc1nc(SCC(=O)Nc2ccc(F)cc2)c(C#N)c(C)c1CC(=O)c1ccc(Br)cc1	Nrf2 block 13µM, A549 viability 12µM
CSc1ccc(CN(C)Cc2cc(=O)oc3c(C)c(C)ccc23)cc1	Nrf2 block inconclusive
CCOc1ccc(CN(C)Cc2cc(=O)oc3c(C)c(C)ccc23)cc1OC	Nrf2 block 16µM (no result: miR-21 reporter, Mito fusion yeast)
N#CC1=C2SCCN2C(=O)C(C#N)C12CCCCC2 (configuration not stated)	none
O=C1CCc2cc(S(=O)(=O)Nc3ccccc3)ccc2N1	none (no result: miR-21 reporter)
O=C1CCc2cc(S(=O)(=O)Nc3ccc(-c4ccccc4)cc3)ccc2N1	Nrf2 block 12µM (no result: Nrf2 ARE act, GRP78 ERSR act, miR-21 reporter, Mito fusion yeast)
Cc1ccc(NC(=O)CN(C)C(=O)c2ccc(-n3cncn3)c([N+](=O)[O-])c2)cc1	none (no result: miR-21 reporter)
Cc1ccc(-n2cc(-c3ccccc3)c3c(N4CCCCC4)ncnc32)cc1	none (no result: Nrf2 block, Mito fusion yeast)
CC1CN(c2ncnc3c2c(-c2ccccc2)cn3-c2ccc(F)cc2)CC(C)O1 (configuration not stated)	Nrf2 block 18µM, A549 viability inconclusive
Cc1ccc(-n2cc(-c3ccccc3)c3c(N4CCOCC4)ncnc32)cc1	Nrf2 block 23µM
OCCN1CCN(c2ncnc3c2c(-c2ccccc2)cn3-c2ccc(F)cc2)CC1	Nrf2 block inconclusive, A549 viability inconclusive
CC1(c2ccc(Cl)cc2)CC(C)(C)N(C(=O)c2ccccc2)c2ccccc21 (configuration not stated)	Nrf2 block inconclusive (no result: Mito fusion yeast)
Cc1ccc(C(=O)NC(C)C(c2cccs2)N2CCCC2)s1 (configuration not stated)	none
Cc1ccc(Nc2c(-c3ccccc3O)nc3cc(C)ccn23)cc1	none (no result: Mito fusion yeast)
Cc1cccc2nc(-c3ccccn3)c(Nc3ccccc3)n12	Nrf2 block 10µM, miR-21 reporter inconclusive (no result: Mito fusion yeast)
Cc1ccn2c(Nc3ccc(F)cc3)c(-c3ccccn3)nc2c1	Nrf2 block 16µM, A549 viability inconclusive (no result: Mito fusion yeast)
Cc1ccc(Nc2c(-c3ccc(C)o3)nc3cccc(C)n23)cc1	none (no result: Mito fusion yeast)
Cc1cccc2nc(-c3ccco3)c(Nc3ccccc3)n12	Nrf2 block inconclusive
Cc1cccc2nc(-c3ccccn3)c(Nc3ccc(F)cc3)n12	Nrf2 block 16µM, miR-21 reporter inconclusive, A549 viability inconclusive (no result: Mito fusion yeast)
COc1cccc(C(C(=O)NC2CCCCC2)N(C(=O)CNC(=O)c2ccco2)c2cccnc2)c1 (configuration not stated)	none
Cc1sc(NC(=O)CN2CCOCC2)nc1-c1ccc2c(c1)CCN2S(=O)(=O)c1ccccc1	Nrf2 block 2.6µM, miR-21 reporter inconclusive
O=C(N/N=C\c1c(O)ccc2ccccc12)c1ccc(O)cc1	none
Nc1nonc1N/N=C\c1ccccc1	none
Nc1nonc1N/N=C/c1c(O)ccc2ccccc12	Nrf2 ARE act 7.9µM
O=C(NN=Cc1c(O)ccc2ccccc12)c1ccncc1	Nrf2 block 26µM, A549 viability inconclusive (no result: miR-21 reporter, Mito fusion yeast)
COc1ccc(CNC(=O)CN(Cc2ccc(F)cc2)C(=O)CCC(=O)Nc2nccs2)cc1	Nrf2 block inconclusive
O=C(NCC(c1cccnc1)N1CCN(Cc2ccccc2)CC1)C(=O)Nc1ccc(F)cc1 (configuration not stated)	Nrf2 block inconclusive (no result: Mito fusion yeast)
FC(F)(F)c1ccccc1NC(=S)N1CCN(Cc2ccc3c(c2)OCO3)CC1	Nrf2 block 18µM
